Results from patent US20040171073A1, “Compounds for modulation of cholesterol transport” (Massachusetts Institute of Technology, priority 2002, published 2004).

Chains of the proteins cited; added tags and fusions are not shown. Lines headed by an entry give the natural chain unless they say otherwise; changes in a name come on top.
UniProt Q61009: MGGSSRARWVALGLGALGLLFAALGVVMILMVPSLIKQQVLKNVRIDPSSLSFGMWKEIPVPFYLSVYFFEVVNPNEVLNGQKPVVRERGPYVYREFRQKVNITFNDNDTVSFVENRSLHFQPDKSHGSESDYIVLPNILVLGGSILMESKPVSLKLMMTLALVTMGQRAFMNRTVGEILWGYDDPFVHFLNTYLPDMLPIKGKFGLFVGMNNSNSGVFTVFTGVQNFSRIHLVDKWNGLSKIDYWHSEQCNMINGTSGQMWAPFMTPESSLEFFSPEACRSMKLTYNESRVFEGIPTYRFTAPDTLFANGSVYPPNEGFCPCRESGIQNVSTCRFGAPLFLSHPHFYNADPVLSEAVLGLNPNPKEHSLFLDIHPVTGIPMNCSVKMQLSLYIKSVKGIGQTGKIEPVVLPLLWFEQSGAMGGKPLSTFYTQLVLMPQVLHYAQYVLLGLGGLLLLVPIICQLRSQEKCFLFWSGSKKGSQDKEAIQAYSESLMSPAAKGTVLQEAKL

Target: murine SR-BI (Mus musculus, UniProt Q61009)
Experiment: Uptake of DiI from DiI-HDL by ldlA[mSR-BI] cells (high throughput screen and concentration dependence)
Assay type: cell-based

## O=C(Nc1ccc(Cl)c([N+](=O)[O-])c1)c1ccc([N+](=O)[O-])cc1[N+](=O)[O-]
Test 1
  ENDOHDL Test 1: 0.58
Test 2
  ENDOHDL Test 2: 0.6
